What was measured:
[1] = molecular target: T1, [3H]-NMS-occupied muscarinic hM2 subtype (Homo sapiens, UniProt P08172); experiment: One point kinetic (off-rate) assay of [3H]-NMS dissociation; assay type: binding; details: for Kd: read-out: Log Kocc hM2 (converted)
T1 construct: expressed in transfected cells; host or cells: CHO cells, stably transfected; membrane fractions

Protein sequences, listed by entry. Tags and fused reporters are not part of them.
UniProt P08172, whole entry: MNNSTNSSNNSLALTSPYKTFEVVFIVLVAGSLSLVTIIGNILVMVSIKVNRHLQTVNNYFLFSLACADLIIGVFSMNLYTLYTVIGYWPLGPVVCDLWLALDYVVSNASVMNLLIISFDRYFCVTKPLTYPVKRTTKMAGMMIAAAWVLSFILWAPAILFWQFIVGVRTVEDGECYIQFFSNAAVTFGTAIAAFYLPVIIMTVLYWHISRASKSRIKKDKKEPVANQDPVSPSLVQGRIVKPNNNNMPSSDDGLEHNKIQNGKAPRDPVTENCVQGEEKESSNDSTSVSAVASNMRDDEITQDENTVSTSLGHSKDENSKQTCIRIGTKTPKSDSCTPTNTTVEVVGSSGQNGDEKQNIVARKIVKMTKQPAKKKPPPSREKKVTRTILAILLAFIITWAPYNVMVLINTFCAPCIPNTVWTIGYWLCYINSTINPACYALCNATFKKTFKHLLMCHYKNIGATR

hM2 muscarinic receptor = molecular target: T2, hM2 muscarinic receptor (Homo sapiens, UniProt P08172); experiment: Equilibrium inhibition binding with [3H]-NMS, CHO cell membranes
T2 construct: expressed in transfected cells; host or cells: CHO cells, stably transfected; membrane fractions

[2] = molecular target: five human muscarinic receptors subtypes (hM1–hM5); experiment: Equilibrium binding, summary statements over the five subtypes

SMILES | selectivity ratio hM2/hM1 ([1]; from log Kocc values) | selectivity ratio hM2/hM5 ([1]; from log Kocc values) | Kd [1] [µM] | Ki (hM2 muscarinic receptor) [µM] | pKi values (muscarinic subtypes overall) [2]
[H]/N=C(\N/C(=N/[H])NCCCCCCNC(=N)NC(=N)Nc1ccc(Cl)cc1)Nc1ccc(Cl)cc1 [chlorhexidine] | 14 | 32.4 | 5.75 | 3.8 | –
CC(=O)N1CCN(c2ccc(OCC3COC(Cn4ccnc4)(c4ccc(Cl)cc4Cl)O3)cc2)CC1 (stereo not drawn) [ketoconazole] | – | – | 61.7 | – | –
C[n+]1ccc(-c2cc[n+](C)cc2)cc1 [paraquat] | – | – | – | – | below 5

Reference: article PMC7503225, “Repositioning Dequalinium as Potent Muscarinic Allosteric Ligand by Combining Virtual Screening Campaigns and Experimental Binding Assays” (International Journal of Molecular Sciences, 2020)
